Test results taken from patent US10787490B2, “Peptide inhibitors of interleukin-23 receptor and their use to treat inflammatory diseases” (Protagonist Therapeutics, Inc., priority 2015, dated 2020).

Protein sequences, listed by entry. Tags and fused reporters are not part of them. Residues count along the entry.
UniProt Q5VWK5, 24-354 limits assumed, looked up: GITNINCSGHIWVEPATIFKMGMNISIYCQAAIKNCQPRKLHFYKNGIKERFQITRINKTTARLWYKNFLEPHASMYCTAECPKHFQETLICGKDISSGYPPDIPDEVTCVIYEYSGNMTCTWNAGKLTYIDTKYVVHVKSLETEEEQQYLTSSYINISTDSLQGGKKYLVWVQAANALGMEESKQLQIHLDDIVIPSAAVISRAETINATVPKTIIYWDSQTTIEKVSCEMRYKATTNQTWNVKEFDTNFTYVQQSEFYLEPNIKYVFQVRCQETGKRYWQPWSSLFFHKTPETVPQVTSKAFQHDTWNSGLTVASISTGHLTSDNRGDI

Target: human IL-23R (IL23R_huFC) (Homo sapiens, UniProt Q5VWK5)
[1] = read-out: Human IL23R/IL23 ELISA, peptide dimers, numeric
[2] = read-out: Human ELISA IL23/IL23R
[3] = read-out: Human IL23/IL23R ELISA IC50, Table E3H

SMILES | IC50 [2] | IC50 [3] | other results
CC(=O)N[C@H]1CSSC[C@@H](C(=O)N[C@@H](Cc2ccc(O)cc2)C(=O)N[C@@H](Cc2c[nH]c3ccccc23)C(=O)N[C@@H](Cc2c[nH]cn2)C(=O)N[C@H](C(=O)N[C@@H](Cc2ccccc2)C(=O)NCC(=O)O)[C@@H](C)O)NC(=O)[C@H](C(C)C)NC(=O)[C@H](Cc2c[nH]c3ccccc23)NC(=O)[C@H](CC(=O)O)NC(=O)[C@H](CCCCNC(=O)COCC(=O)NCCCC[C@@H]2NC(=O)[C@@H](NC(C)=O)CSSC[C@@H](C(=O)N[C@@H](Cc3ccc(O)cc3)C(=O)N[C@@H](Cc3c[nH]c4ccccc34)C(=O)N[C@@H](Cc3c[nH]cn3)C(=O)N[C@H](C(=O)N[C@@H](Cc3ccccc3)C(=O)NCC(=O)O)[C@@H](C)O)NC(=O)[C@H](C(C)C)NC(=O)[C@H](Cc3c[nH]c4ccccc34)NC(=O)[C@H](CC(=O)O)NC2=O)NC1=O [compound 296] | – | – | IC50 [1]: > 10000 nM
CC(=O)N[C@H]1CSSC[C@@H](C(=O)N[C@@H](Cc2ccc(O)cc2)C(=O)N[C@@H](Cc2c[nH]c3ccccc23)C(=O)N[C@@H](Cc2c[nH]cn2)C(=O)N[C@H](C(=O)N[C@@H](Cc2ccccc2)C(=O)NCC(=O)O)[C@@H](C)O)NC(=O)[C@H](CCCCNC(=O)COCC(=O)NCCCC[C@@H]2NC(=O)[C@H](Cc3c[nH]c4ccccc34)NC(=O)[C@H](CC(=O)O)NC(=O)[C@H](C)NC(=O)[C@@H](NC(C)=O)CSSC[C@@H](C(=O)N[C@@H](Cc3ccc(O)cc3)C(=O)N[C@@H](Cc3c[nH]c4ccccc34)C(=O)N[C@@H](Cc3c[nH]cn3)C(=O)N[C@H](C(=O)N[C@@H](Cc3ccccc3)C(=O)NCC(=O)O)[C@@H](C)O)NC2=O)NC(=O)[C@H](Cc2c[nH]c3ccccc23)NC(=O)[C@H](CC(=O)O)NC(=O)[C@H](C)NC1=O [compound 297] | – | – | IC50 [1]: > 10000 nM
CC(=O)N[C@H]1CSSC[C@@H](C(=O)N[C@@H](Cc2ccc(O)cc2)C(=O)N[C@@H](Cc2c[nH]c3ccccc23)C(=O)N[C@@H](Cc2c[nH]cn2)C(=O)N[C@@H](CCCCNC(=O)COCC(=O)NCCCC[C@H](NC(=O)[C@H](Cc2c[nH]cn2)NC(=O)[C@H](Cc2c[nH]c3ccccc23)NC(=O)[C@H](Cc2ccc(O)cc2)NC(=O)[C@@H]2CSSC[C@H](NC(C)=O)C(=O)N[C@@H](C)C(=O)N[C@@H](CC(=O)O)C(=O)N[C@@H](Cc3c[nH]c4ccccc34)C(=O)N[C@@H](C(C)C)C(=O)N2)C(=O)N[C@@H](Cc2ccccc2)C(=O)NCC(=O)O)C(=O)N[C@@H](Cc2ccccc2)C(=O)NCC(=O)O)NC(=O)[C@H](C(C)C)NC(=O)[C@H](Cc2c[nH]c3ccccc23)NC(=O)[C@H](CC(=O)O)NC(=O)[C@H](C)NC1=O [compound 299] | – | – | IC50 [1]: > 10000 nM
CC(=O)N[C@H]1CSSC[C@@H](C(=O)N[C@@H](Cc2ccc(O)cc2)C(=O)N[C@@H](Cc2c[nH]c3ccccc23)C(=O)N[C@@H](Cc2c[nH]cn2)C(=O)N[C@H](C(=O)N[C@@H](Cc2ccccc2)C(=O)N[C@@H](CC(=O)O)C(=O)N[C@@H](CCCCNC(=O)COCC(=O)NCCCC[C@H](NC(=O)[C@H](CC(=O)O)NC(=O)[C@H](Cc2ccccc2)NC(=O)[C@@H](NC(=O)[C@H](Cc2c[nH]cn2)NC(=O)[C@H](Cc2c[nH]c3ccccc23)NC(=O)[C@H](Cc2ccc(O)cc2)NC(=O)[C@@H]2CSSC[C@H](NC(C)=O)C(=O)N[C@@H](C)C(=O)N[C@@H](CC(=O)O)C(=O)N[C@@H](Cc3c[nH]c4ccccc34)C(=O)N[C@@H](C(C)C)C(=O)N2)[C@@H](C)O)C(=O)O)C(=O)O)[C@@H](C)O)NC(=O)[C@H](C(C)C)NC(=O)[C@H](Cc2c[nH]c3ccccc23)NC(=O)[C@H](CC(=O)O)NC(=O)[C@H](C)NC1=O [compound 301] | – | – | IC50 [1]: > 10000 nM
CC(=O)N[C@H]1CSSC[C@@H](C(=O)N[C@@H](Cc2ccc(O)cc2)C(=O)N[C@H](CC(=O)N[C@@H](CCCNC(=N)N)C(=O)N[C@H](C(=O)N[C@@H](CC(N)=O)C(=O)NCC(=O)NCCOCC(=O)N[C@H](CCCCN)C(N)=O)C(C)C)Cc2ccc(O)cc2)NC(=O)[C@H](CCC(N)=O)NC(=O)[C@H](Cc2c[nH]c3ccccc23)NC(=O)[C@H]([C@@H](C)O)NC(=O)[C@H](CCC(N)=O)NC1=O [compound 321] | > 30000 nM | – | –
CC(=O)N[C@H]1CSSC[C@@H](C(=O)N[C@@H](Cc2ccc(O)cc2)C(=O)N[C@H](CC(=O)N[C@@H](CCCNC(=N)N)C(=O)N[C@H](C(=O)N[C@@H](CC(N)=O)C(=O)NCC(=O)NCCOCC(=O)N[C@H](CCCCN)C(N)=O)C(C)C)Cc2ccc(F)cc2)NC(=O)[C@H](CCC(N)=O)NC(=O)[C@H](Cc2c[nH]c3ccccc23)NC(=O)[C@H]([C@@H](C)O)NC(=O)[C@H](CCC(N)=O)NC1=O [compound 322] | > 30000 nM | – | –
CC(=O)N[C@H]1CSSC[C@@H](C(=O)N[C@@H](Cc2ccc(O)cc2)C(=O)N[C@@H](Cc2c[nH]c3ccccc23)C(=O)N[C@@H](CCCNC(=N)N)C(=O)N[C@H](CC(=O)N[C@@H](CC(N)=O)C(=O)NCC(=O)NCCOCC(=O)N[C@H](CCCCN)C(N)=O)CC(C)C)NC(=O)[C@H](CCC(N)=O)NC(=O)[C@H](Cc2c[nH]c3ccccc23)NC(=O)[C@H]([C@@H](C)O)NC(=O)[C@H](CCC(N)=O)NC1=O [compound 326] | 224 nM | – | –
CC(=O)N[C@H]1CSSC[C@@H](C(=O)N[C@@H](Cc2ccc(O)cc2)C(=O)N[C@@H](Cc2c[nH]c3ccccc23)C(=O)N[C@@H](CCCNC(=N)N)C(=O)N[C@@H](C)CC(=O)N[C@@H](CC(N)=O)C(=O)NCC(=O)NCCOCC(=O)N[C@H](CCCCN)C(N)=O)NC(=O)[C@H](CCC(N)=O)NC(=O)[C@H](Cc2c[nH]c3ccccc23)NC(=O)[C@H]([C@@H](C)O)NC(=O)[C@H](CCC(N)=O)NC1=O [compound 328] | 457 nM | – | –
CC(=O)N[C@H]1CSSC[C@@H](C(=O)N[C@@H](Cc2ccc(O)cc2)C(=O)N[C@@H](Cc2c[nH]c3ccccc23)C(=O)N[C@H](CC(=O)N[C@H](C(=O)N[C@@H](CC(N)=O)C(=O)NCC(=O)NCCOCC(=O)N[C@H](CCCCN)C(N)=O)C(C)C)CC(C)C)NC(=O)[C@H](CCC(N)=O)NC(=O)[C@H](Cc2c[nH]c3ccccc23)NC(=O)[C@H]([C@@H](C)O)NC(=O)[C@H](CCC(N)=O)NC1=O [compound 332] | 311 nM | – | –
CC(=O)N[C@H]1CSSC[C@@H](C(=O)N[C@@H](Cc2ccc(O)cc2)C(=O)N[C@@H](Cc2c[nH]c3ccccc23)C(=O)N[C@@H](C)CC(=O)N[C@H](C(=O)N[C@@H](CC(N)=O)C(=O)NCC(=O)NCCOCC(=O)N[C@H](CCCCN)C(N)=O)C(C)C)NC(=O)[C@H](CCC(N)=O)NC(=O)[C@H](Cc2c[nH]c3ccccc23)NC(=O)[C@H]([C@@H](C)O)NC(=O)[C@H](CCC(N)=O)NC1=O [compound 334] | 355 nM | – | –
CC(=O)N[C@H]1CSSC[C@@H](C(=O)N[C@@H](Cc2ccc(O)cc2)C(=O)N[C@@H](Cc2c[nH]c3ccccc23)C(=O)N[C@H](CC(=O)N[C@H](C(=O)N[C@@H](CC(N)=O)C(=O)NCC(=O)NCCOCC(=O)N[C@H](CCCCN)C(N)=O)C(C)C)C(C)C)NC(=O)[C@H](CCC(N)=O)NC(=O)[C@H](Cc2c[nH]c3ccccc23)NC(=O)[C@H]([C@@H](C)O)NC(=O)[C@H](CCC(N)=O)NC1=O [compound 335] | 501 nM | – | –
CC(=O)N[C@H]1CSSC[C@@H](C(=O)N[C@@H](Cc2ccc(O)cc2)C(=O)N[C@@H](Cc2c[nH]c3ccccc23)C(=O)N[C@@H](CCC(C)C)C(=O)N[C@@H](CCC(=O)O)C(=O)N[C@H](C(=O)NCC(N)=O)[C@@H](C)O)NC(=O)[C@H](CCC(N)=O)NC(=O)[C@H](Cc2c[nH]c3ccccc23)NC(=O)[C@H]([C@@H](C)O)NC(=O)[C@H](CCC(N)=O)NC1=O [compound 402] | – | 818 nM | –
CC(=O)N[C@H]1CSSC[C@@H](C(=O)N[C@@H](Cc2ccc(O)cc2)C(=O)N[C@@H](Cc2c[nH]c3ccccc23)C(=O)N[C@@H](CCC(C)C)C(=O)N2CCC[C@H]2C(=O)N[C@@H](CC(N)=O)C(=O)NCC(N)=O)NC(=O)[C@H](CCC(N)=O)NC(=O)[C@H](Cc2c[nH]c3ccccc23)NC(=O)[C@H]([C@@H](C)O)NC(=O)[C@H](CCC(N)=O)NC1=O [compound 404] | – | 4830 nM | –
CC(=O)N[C@H]1CSSC[C@@H](C(=O)N[C@@H](Cc2ccc(O)cc2)C(=O)N[C@@H](Cc2c[nH]c3ccccc23)C(=O)N[C@@H](CCC(C)C)C(=O)N[C@H](C(=O)N[C@@H](CC(N)=O)C(=O)NCC(N)=O)[C@@H](C)O)NC(=O)[C@H](CCC(N)=O)NC(=O)[C@H](Cc2c[nH]c3ccccc23)NC(=O)[C@H]([C@@H](C)O)NC(=O)[C@H](CCC(N)=O)NC1=O [compound 407] | – | 109 nM | –
CC(=O)N[C@H]1CSSC[C@@H](C(=O)N[C@@H](Cc2ccc(O)cc2)C(=O)N[C@@H](Cc2c[nH]c3ccccc23)C(=O)N2CCC[C@H]2C(=O)N[C@@H](CCC(=O)O)C(=O)N[C@@H](CC(N)=O)C(=O)NCC(N)=O)NC(=O)[C@H](CCC(N)=O)NC(=O)[C@H](Cc2c[nH]c3ccccc23)NC(=O)[C@H]([C@@H](C)O)NC(=O)[C@H](CCC(N)=O)NC1=O [compound 409] | – | > 30000 nM | –
CC(=O)N[C@H]1CSSC[C@@H](C(=O)N[C@@H](Cc2ccc(O)cc2)C(=O)N[C@@H](Cc2c[nH]c3ccccc23)C(=O)N[C@@H](CCC(C)C)C(=O)N[C@@H](CCC(=O)O)C(=O)N[C@@H](CC(N)=O)C(=O)NCC(=O)N[C@@H](CC(C)C)C(N)=O)NC(=O)[C@H](CCC(N)=O)NC(=O)[C@H](Cc2c[nH]c3ccccc23)NC(=O)[C@H]([C@@H](C)O)NC(=O)[C@H](CCC(N)=O)NC1=O [compound 472] | – | 174 nM | –
CC(=O)N[C@H]1CSSC[C@@H](C(=O)N[C@@H](Cc2ccc(O)cc2)C(=O)N[C@@](C)(Cc2c[nH]c3ccccc23)C(=O)N[C@@H](CCC(C)C)C(=O)N[C@@H](CCC(=O)O)C(=O)N[C@@H](CCC(N)=O)C(=O)NCC(N)=O)NC(=O)[C@H](CCC(N)=O)NC(=O)[C@H](Cc2c[nH]c3ccccc23)NC(=O)[C@H]([C@@H](C)O)NC(=O)[C@H](CCC(N)=O)NC1=O [compound 496] | – | > 30000 nM | –
CC(=O)N[C@H]1CSSC[C@@H](C(=O)N[C@@H](Cc2ccc(O)cc2)C(=O)N[C@@H](Cc2c[nH]c3ccccc23)C(=O)N[C@@H](CCCNC(=N)N)C(=O)N[C@@H](CC(N)=O)C(=O)N[C@@H](Cc2ccccc2)C(=O)N[C@@H](CCC(=O)O)C(=O)N[C@@H](CO)C(=O)NCC(N)=O)NC(=O)[C@H](CCC(N)=O)NC(=O)[C@H](Cc2c[nH]c3ccccc23)NC(=O)[C@H]([C@@H](C)O)NC(=O)[C@H](CCC(N)=O)NC1=O [compound 508] | – | 315 nM | –

Where two headings read alike, the source gives them in different places.
